This experiment has as its target Melanocyte-stimulating hormone receptor (Mus musculus, UniProt Q01727). As to the kind of experiment: Agonist activity at mouse melanocortin receptor 1 expressed in HEK293 cells assessed as stimulation of cAMP accumulation incubated for 2 hrs by cAMP AlphaScreen assay. Format: functional, cell-based. On the technique in general: cAMP levels reflect the balance of adenylyl cyclase and phosphodiesterase activity.

Protein sequences, listed by entry. Tags and fused reporters are not part of them. Lines headed by an entry give the natural chain unless they say otherwise; changes in a name come on top.
UniProt Q01727: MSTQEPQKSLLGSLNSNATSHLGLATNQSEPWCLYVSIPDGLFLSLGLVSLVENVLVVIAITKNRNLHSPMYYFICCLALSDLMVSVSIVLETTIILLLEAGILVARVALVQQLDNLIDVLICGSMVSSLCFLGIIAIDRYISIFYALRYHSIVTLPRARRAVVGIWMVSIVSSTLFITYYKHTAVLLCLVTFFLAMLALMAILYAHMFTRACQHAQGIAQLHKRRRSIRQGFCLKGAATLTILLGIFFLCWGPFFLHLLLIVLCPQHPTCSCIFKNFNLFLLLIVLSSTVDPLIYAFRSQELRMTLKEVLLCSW

In the case of `CC(=O)N[C@@H](Cc1cnc[nH]1)C(=O)N[C@H](Cc1ccccc1)C(=O)N[C@@H](CCCN=C(N)N)C(=O)N[C@@H](Cc1c[nH]c2ccccc12)C(N)=O`, the 50% effective concentration (EC50) (as a rule, the midpoint of the concentration-response curve) stood at 0.016 µM.
With `CC(=O)N[C@@H](Cc1c[nH]cn1)C(=O)N[C@@H](Cc1ccccc1)C(=O)N[C@@H](CCCN=C(N)N)C(=O)N[C@@H](Cc1c[nH]c2ccccc12)C(N)=O`, the EC50 was determined as 3 µM.

Values taken from ChEMBL document CHEMBL4342477, “Single Nucleotide Polymorphisms in the Melanocortin His-Phe-Arg-Trp Sequences Decrease Tetrapeptide Potency and Efficacy” (ACS Med Chem Lett, 2020).
